The source of these data is PubChem BioAssay AID493084 (National Center for Advancing Translational Sciences (NCATS), 2011).

Chains of the proteins cited; added tags and fusions are not shown.
UniProt P34981, whole entry: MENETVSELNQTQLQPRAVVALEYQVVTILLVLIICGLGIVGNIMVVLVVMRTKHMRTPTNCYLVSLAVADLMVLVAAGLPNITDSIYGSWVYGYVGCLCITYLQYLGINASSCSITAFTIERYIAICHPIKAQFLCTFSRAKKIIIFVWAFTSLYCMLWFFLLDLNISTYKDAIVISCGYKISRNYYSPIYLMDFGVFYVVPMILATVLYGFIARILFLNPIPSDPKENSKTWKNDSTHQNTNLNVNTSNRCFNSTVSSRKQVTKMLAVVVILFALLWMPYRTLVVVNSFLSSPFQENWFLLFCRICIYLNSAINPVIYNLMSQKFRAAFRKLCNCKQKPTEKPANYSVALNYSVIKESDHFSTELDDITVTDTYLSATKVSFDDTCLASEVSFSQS

Molecules are shown by their SMILES. This is a selection; strong and weak results do not stand in their true shares. Activity calls are given as the source filed them. Rule as the data show it: active = activation above about 30%; inactive = the rest.

For the assay, the target named is Thyrotropin-releasing hormone receptor (Homo sapiens) (UniProt P34981). In words: qHTS for Small Molecule Agonists and Allosteric Enhancers of Human TRH Receptor: Primary Screen for Agonists. Also: 0% is about no effect. The note with it: TRHR cells, calcium flux fluo-8, FDSS agonist mode; at 2 µM; active compounds read high. From the text:
NIH Chemical Genomics Center [NCGC] NIH Molecular Libraries Probe Centers Network [MLPCN] MLPCN Grant: MH089816-01 Assay Submitter (PI): Marvin Gershengorn This project aims to identify small drug-like molecules that activate (agonists) the thyrotropin releasing hormone (TRH) receptor (TRHR) or enhance its TRH-stimulated activity (allosteric enhancers). TRHR, a drug-accessible cell surface receptor expressed in specific brain regions, and its ligand TRH have been implicated in several central nervous system disorders, including depression and anxiety. Small molecule TRHR agonists or allosteric enhancers that are metabolically stable and able to cross the blood-brain barrier might serve as probes to elucidate the roles of brain TRH receptors in animal models, and might be valuable as lead compounds for the development of drugs to treat patients with central nervous system disorders. Upon TRHR-Gq activation in TRHR cells, intracellular calcium is released from stores in the endoplasmic reticulum. […] This primary screen measures compound-induced activation of calcium release.
For the HTS assay freshly prepared cells are plated at a density of 2000/well in 3 ul of complete DMEM medium containing 10% serum in 1536-well plates and cultured over night at 37 C in a humidified incubator with 5% CO2. The next day, 2 ul of a no wash calcium dye (ABD Bioquest) was added to the cells and plates were incubated at room temperature for 1 hour. For the assay, assay plates were loaded into the FDSS kinetic plate reader. A 10 cycle (1 second/cycle) baseline measurement is taken and then the FDSS online 1536 pintool delivers 23 nl of compound library (as well as TRH controls) to the plate. The plate is measured for kinetically at 1 cycle/sec for 180 seconds and is considered to be the agonist portion of the assay (eg, compounds which activate a positive calcium response during this portion are flagged as potential agonists). Following the 180 second read, 1 ul of either an EC20 (positive modulation assay) is delivered by an onboard pipette head. Measurements are taken kinetically for an additional 180 seconds. TRHR FDSS Screening Protocol 1. Reagent, 3 uL 2000 cells/well 1536 TC treated Black plate in media containing 10% FCS 2. Time, 18 hours, 33.5C 5% CO2 (cells grown at 37C) 3. Reagent, 2 uL ABD fluo-8 Ca dye 4. Time, 30 min-1.5hrs hours, Room temp (6 plates/batch) 5. Detector, EX 480/EM 530C, FDSS 10 cycles baseline (1sec/cycle) 6. Compound, 23 nL of stock solution from library 7. Detector, EX 480/EM 530C, FDSS […] (1sec/cycle) Agonist mode 8. Compound, 1 ul EC20 of TRH made up in HEPES HBSS, 10 nM final 9. Detector, EX 480/EM 530C, FDSS 100 cycles (1sec/cycle) Potentiator mode
(qHTS replaces the single test concentration by a dilution series.)
`O=C(OC1CN2CCC1CC2)c1ccc([N+](=O)[O-])cc1` (centres undefined): the activation was inactive: 2.18%.

Consider `CCCCOc1ccccc1C(=O)NCC1(N2CCOCC2)CCCCC1`, for which the activation was inactive: -1.84%.

As to `O=C(NCC1(N2CCOCC2)CCCCC1)c1ccccc1Br`, the activation was inactive: 0.586%.

In the case of `CCCOc1ccc(C(=O)NCC2(N(C)C)CCCCC2)cc1OC`, the activation was inactive: 1.75%.

`COc1ccc(CN(CCCl)CCCl)cc1Cl`: the activation was inactive: -0.531%.

Consider `O=[N+]([O-])c1cc([N+](=O)[O-])c(OC2CCCCC2O)c([N+](=O)[O-])c1` (centres undefined), for which the activation was inactive: 1.34%.

In the case of `CN(C)c1cccc(C(=O)NCC2(N3CCCCC3)CCCCC2)c1`, the activation was inactive: -0.949%.

For the compound `CC(C)c1ccc(NC2CCN(C(=O)OC(C)(C)C)CC2)cc1`, the activation is inactive: 0.872%.

`COc1cc(OC)c(C(=O)NCC2(N(C)C)CCCCC2)cc1OC`: the activation was inactive: -0.186%.

With `CCCOc1cccc(C(=O)NCC2(N3CCOCC3)CCCCC2)c1`, the activation is inactive: -1.1%.

As for `O=C(NCC1(N2CCCCC2)CCCCC1)c1cccc(C(F)(F)F)c1`, the activation is inactive: 1.92%.

Turning to `O=[N+]([O-])c1cc([N+](=O)[O-])c(NCC2CCS(=O)(=O)C2)c([N+](=O)[O-])c1` (centres undefined), the activation was inactive: 1.68%.

Regarding `CN1CCN(CCOC(=O)C(O)(c2ccccc2)c2ccccc2)CC1`, the activation was inactive: -0.214%.

Consider `COc1ccc(NC2CCN(C(=O)OC(C)(C)C)CC2)cc1`, for which the activation was inactive: 0.0674%.

Regarding `CC(C)c1ccc(C(=O)NCC2(N3CCOCC3)CCCCC2)cc1`, the activation was inactive: -1.31%.

As to `COc1cc(C(=O)NCC2(N3CCCCC3)CCCCC2)ccc1OC(F)F`, the activation was inactive: 0.76%.

For the compound `O=C(NCC1(N2CCOCC2)CCCCC1)c1cc(=O)[nH]c2ccccc12`, the activation was inactive: 0.114%.

On to `O=C(NCC1(N2CCCCC2)CCCCC1)c1ccc(OC(F)F)cc1`, for which the activation is inactive: 1.04%.

On to `CSc1ccc(C(=O)NCC2(N3CCOCC3)CCCCC2)cc1`, for which the activation is inactive: -0.0497%.

Consider `O=C(NCC1(N2CCCCC2)CCCCC1)c1cccc([N+](=O)[O-])c1`, for which the activation was inactive: 0.456%.

Regarding `CCOc1ccc(C(=O)NCC2(N3CCOCC3)CCCCC2)cc1`, the activation is inactive: 0.0174%.

For `CCN1CCC(Nc2ccc(Cl)cc2)CC1`, the activation was inactive: 0.651%.

Regarding `N#CC1(Nc2ccccc2)CCN(CCc2ccccc2)CC1`, the activation was inactive: 0.801%.

As to `c1ccc(CN2CCC(Nc3ccccc3)CC2)cc1`, the activation is inactive: -0.0643%.

In the case of `CCCN1CCC(Nc2cc(OC)cc(OC)c2)CC1`, the activation is inactive: 1.52%.

`O=C(NCC1(N2CCOCC2)CCCCC1)c1ccccc1`: the activation was inactive: 0.301%.

In the case of `CN(C)C1(CNC(=O)c2cccc(C#N)c2)CCCCC1`, the activation was inactive: -0.869%.

As to `O=C(NCC1(N2CCOCC2)CCCCC1)c1ccc([N+](=O)[O-])cc1`, the activation is inactive: -0.291%.

In the case of `CC(C)(C)OC(=O)N1CCC(N(C(=O)c2ccccc2)c2ccc(Cl)cc2)CC1`, the activation is inactive: 0.0774%.

`N#Cc1ccc(C(=O)NCC2(N3CCCCC3)CCCCC2)cc1`: the activation was inactive: 0.744%.

`O=C(NCC1(N2CCOCC2)CCCCC1)c1ccccc1[N+](=O)[O-]`: the activation was inactive: 0.581%.

Consider `CCOC(=O)C(CC)C1=NC(C)(C)Cc2ccccc21.O=[N+]([O-])c1cc([N+](=O)[O-])c(O)c([N+](=O)[O-])c1` (centres undefined), for which the activation is inactive: -0.735%.

For `N/C(=N\O)c1c(N)no[n+]1[O-]`, the activation was inactive: 0.09%.

As to `CCOC(=O)N1CCC(Nc2ccc(C)cc2)CC1`, the activation is inactive: -0.009%.

In the case of `CCc1cc(C(=O)NCC2(N3CCCCC3)CCCCC2)sc1C`, the activation is inactive: 23.3%.

In the case of `O=C(OC1CN2CCC1CC2)C1c2ccccc2C=Cc2ccccc21` (centres undefined), the activation is inactive: 1.09%.

As to `O=C(O)c1cccc(Nc2c([N+](=O)[O-])cc([N+](=O)[O-])cc2[N+](=O)[O-])c1`, the activation was inactive: -0.835%.

Turning to `O=C(NCC1(N2CCOCC2)CCCCC1)c1cc(Br)ccc1Cl`, the activation is inactive: -0.906%.

Turning to `COc1ccc(C(=O)NCC2(N3CCOCC3)CCCCC2)cc1OC`, the activation was inactive: -0.0088%.

In the case of `CCC(CO)(C(=O)OC1CN2CCC1CC2)c1ccccc1` (centres undefined), the activation was inactive: 0.417%.

As to `COc1cc(C(=O)NCC2(N3CCOCC3)CCCCC2)cc(OC)c1OC`, the activation is inactive: -0.0121%.

As for `COc1cc(OC)cc(C(=O)NCC2(N3CCOCC3)CCCCC2)c1`, the activation is inactive: 0.018%.

On to `COc1cccc(C(=O)N(c2cc(C)cc(C)c2)C2CCN(C(=O)OC(C)(C)C)CC2)c1`, for which the activation was inactive: -0.475%.

Regarding `CCCOc1ccc(C)cc1CN(CCCl)CCCl`, the activation was inactive: -1.38%.

In the case of `CN1CCC(Nc2ccc(Cl)cc2)CC1`, the activation is inactive: 0.499%.

Turning to `CCOc1ncccc1C(=O)NCC1(N2CCOCC2)CCCCC1`, the activation was inactive: -1.03%.

Turning to `CN1CCC(Nc2ccc(F)c(Cl)c2)CC1`, the activation is inactive: 3.12%.

For the compound `CCCOc1ccc(C(=O)NCC2(N(C)C)CCCCC2)cc1`, the activation was inactive: 0.836%.

For the compound `CC(C)(C)OC(=O)N1CCC(Nc2ccccc2)CC1`, the activation is inactive: 0.125%.

Take `O=C(O)C1(Nc2ccccc2)CCN(Cc2ccccc2)CC1`: the activation was inactive: -0.141%.

For `CCN1CCC(Nc2cccc(F)c2)CC1`, the activation was inactive: 0.544%.

Take `O=C(NCC1(N2CCCCC2)CCCCC1)c1ccco1`: the activation was inactive: 0.811%.

With `CC(C)(C)c1ccc(C(=O)NCC2(N3CCOCC3)CCCCC2)cc1`, the activation is inactive: -0.197%.

For the compound `CN(C)c1ccc(C(=O)NCC2(N3CCCCC3)CCCCC2)cc1`, the activation was inactive: 0.0413%.

On to `Cc1ccccc1C(=O)NCC1(N(C)C)CCCCC1`, for which the activation is inactive: 0.876%.

`COc1cc(OC)cc(C(=O)NCC2(N3CCCCC3)CCCCC2)c1`: the activation is inactive: -0.833%.

Turning to `CN(C)C1(CNC(=O)c2ccc(C(C)(C)C)cc2)CCCCC1`, the activation was inactive: 1.15%.

As to `Cc1ccc(C(=O)NCC2(N3CCCCC3)CCCCC2)o1`, the activation is inactive: 0.0655%.

Take `Fc1ccccc1NC1CCN(Cc2ccccc2)CC1`: the activation is inactive: -0.372%.
